{
  "source": "paper PMC3419816",
  "about": "(Journal of molecular neuroscience : MN, 2012)",
  "origin": "cited, not measured here",
  "tested_on": "epidermal growth factor receptor (EGFR)",
  "conditions": "cited from earlier work",
  "data": [
    {"smiles": "COc1cc2ncnc(Nc3ccc(F)c(Cl)c3)c2cc1OCCCN1CCOCC1", "note": "[gefitinib]", "values": [
      {"measurement": "effect on PACAP-induced EGFR tyrosine phosphorylation", "result": "inhibited"}
    ]}
  ]
}
